Laboratory results from US7153824B2, “Inhibitors of phosphodiesterases in infertility” (Applied Research Systems ARS Holding N.V., priority 2003, dated 2006).
Where “and” joins values, the source holds several entries; their conditions need not be identical. Equal values may be shown once.

Legend:
[1] = test system: Immature Sprague Dawley CD (SD) BR female rats; experiment: In vivo Rat Follicle Maturation Assay (ovulated oocytes after r-hCG)
Description: In vivo Rat Follicle Maturation Assay: Immature female rats arrived on Friday of the week prior to the experimentation at 18–19 days of age along with a lactating female (ten pups per lactating female). All rats were weaned from the mother on the following Monday (21–22 days old) and were randomly sorted into the experimental groups (6–8 animals/group).
The rats were subcutaneously injected (in the scruff of the neck) twice a day for two days (first injection: 8.30–9.00 and second injection 15.30–16.00) with r-hFSH or vehicle (PBS) at a volume of 250 μL/injection. The doses of FSH injected were either suboptimal (606 ng/rat total dose split over four injections; indicated as ‘Low FSH’ in Figures) or high (2424.8 ng/rat total dose split over 4 injections; indicated as ‘High FSH’ in Figures) as a positive control.
In addition to the above injections, rats were also injected subcutaneously with the test compounds or vehicle twice a day for 2 days at indicated doses (mg/kg/injection), concomitantly with the FSH injections. These compounds were diluted in either NP3S (n-methyl-2-pyrrolidone 5%, polyethylene glycol 400 30%, polyethylene glycol 200 25%, propylene glycol 20%, saline 20%) or aqueous vehicles. Therefore, the total number of injections received by each rat to promote follicle growth was eight, including four injections of r-hFSH or r-hFSH vehicle plus four injections of test compound or test compound vehicle. […]
Pairs of oviducts were placed on one slide and then a slide was placed on top of the first slide using a piece of tape to secure the frosted ends of the slides together. […] The oviducts were then examined by a light microscope under contrast phase conditions (at a minimum of 40× magnification) and the ova, if any, present in the two ampullae for each rat were counted. […]
The proportion of ovulating animals, the average number ova present in the ampulla per rat, and the average ovary weight were calculated from the single values in each experimental group and the relevant graphs were plotted. […]

[2] = test system: Immature Sprague Dawley CD (SD) BR female rats; experiment: Histological count of secondary and antral follicles in rat ovaries; type: in vivo
Procedure: Experiments were conducted according to the In Vivo Rat Follicle Maturation Assay, described above. In one experiment, ovaries were harvested from rats at midday of the second day of treatment for histological analysis, prior to the last set of injections. These rats received only the first three doses of FSH and test compound prior to euthanasia and organ harvest. The secondary follicles were evaluated by counting the total number of secondary follicles: including both small follicles (those at any intermediate stage of maturation, having a multilayered granulosa with the first, scattered vacuoles, but without an antrum) and antral follicles (those having antral dilation, with an external diameter of around 500 microns, or higher, with or without thinning of the granulosa cell layer). The antral follicles (≧500 mcm) were also counted separately.

[3] = High FSH alone (606.2 ng×3 per rat)
[4] = Low FSH alone (151.5 ng×3 per rat)

FSH: Human recombinant follicle stimulating hormone (r-hFSH) supplied by Laboratoires Serono Aubonne
average number of oocytes per rat ([1]; FSH low dose alone (151.5 ng×4 per rat s.c.) plus compound vehicle, control of each experiment): one and 2.4 and 1 and 5 | rats ovulated ([1]; FSH low dose alone plus compound vehicle, control of each experiment): 4 out of ten and 5 out of ten and 3 out of ten and 2 out of 8 | average number of oocytes per rat ([1]; high dose FSH alone (606.2 ng×3 per rat as printed)): 21 and 20 and 15–18 | total number of antral follicles per rat (2 ovaries) [2, 3]: 9.5 | total number of secondary follicles per rat (2 ovaries) [2, 3]: 64 | total number of antral follicles per rat (2 ovaries) [2, 4]: 4.1 | total number of secondary follicles per rat (2 ovaries) [2, 4]: 64
